Data on nine compounds can be found in ChEMBL document CHEMBL4321832 (J Med Chem, 2019).

Structures are written as SMILES. Activity calls are given as the source filed them. The rule behind the calls is not given here.

The species named for experiment [1] is Homo sapiens. In words: Inhibition of human CYP51 T314I mutant expressed in Escherichia coli at inhibitor/enzyme ratio 50/1 incubated for 1 hr using [3H] lanosterol as substrate by HPLC analysis.
The species named for experiment [2] is Homo sapiens. Description: Binding affinity to human CYP51 T314I mutant expressed in Escherichia coli assessed as decrease in demethylation incubated for 1 min.

For the compound `O=C(N[C@@H](Cn1ccnc1)c1ccc(Cl)cc1Cl)c1ccc(-c2nnc(-c3cc(-c4ccccn4)ccc3F)o2)cc1`, the inhibition result in the experiment listed under Homo sapiens [1] is “Active”.
Consider `C=C(CC[C@@H](C)[C@H]1CC[C@@]2(C)C3=C(CC[C@]12C)[C@@]1(C)CC[C@H](O)[C@@H](C)[C@@H]1CC3)C(C)C`, for which the result in the experiment listed under Homo sapiens [2] was Active.
Turning to `O=C(N[C@@H](Cn1ccnc1)c1ccc(Cl)cc1Cl)c1ccc(-c2nnc(-c3cc(F)cc(-c4ncncc4F)c3)o2)cc1`, in the experiment filed under Homo sapiens [1], the inhibition entry is “Active”.
Take `O=C(N[C@@H](Cn1ccnc1)c1ccc(Cl)cc1Cl)c1ccc(-c2nnc(-c3cc(F)cc(-c4ccccn4)c3)o2)cc1`: the inhibition entry in the experiment listed under Homo sapiens [1] was “Active”.
In the case of `O=C(N[C@@H](Cn1ccnc1)c1ccc(Cl)cc1Cl)c1ccc(-c2nnc(-c3ccc(F)c(F)c3)o2)cc1`, the inhibition entry in the experiment listed under Homo sapiens [1] was “Active”.
As to `CC(C)=CCC[C@@H](C)[C@H]1CC[C@@]2(C)C3=C(CC[C@]12C)[C@@]1(C)CC[C@H](O)C(C)(C)[C@@H]1CC3`, the result in the experiment listed under Homo sapiens [2] was Active.
For the compound `C=C(CC[C@@H](C)[C@H]1CC[C@@]2(C)C3=C(CC[C@]12C)[C@@]1(C)CC[C@H](O)C(C)(C)[C@@H]1CC3)C(C)C`, in the experiment filed under Homo sapiens [2], the outcome was Active.
Turning to `O=C(N[C@@H](Cn1ccnc1)c1ccc(Cl)cc1Cl)c1ccc(-c2nnc(-c3cccc(N4CCOCC4)c3)o2)cc1`, the inhibition result in the experiment listed under Homo sapiens [1] is “Active”.
As for `O=C(N[C@@H](Cn1ccnc1)c1ccc(Cl)cc1Cl)c1ccc(-c2nnc(-c3cc(F)cc(OCC(F)(F)F)c3)o2)cc1`, the inhibition result in the experiment filed under Homo sapiens [1] was “Active”.
